{
  "source": "patent US20100075972A1",
  "about": "“AGENT FOR TREATMENT OF MULTIPLE SCLEROSIS” (Kowa Co., Ltd., priority 2007, published 2010)",
  "molecules": {"B1": {"name": "IFN-β: IFN-β (Nihon Schering), interferon-β pharmaceutical product used in current therapy for multiple sclerosis; comparator (protein, UniProt P01574 22-187, looked up)", "Interferon beta": "MSYNLLGFLQRSSNFQCQKLLWQLNGRLEYCLKDRMNFDIPEEIKQLQQFQKEDAALTIYEMLQNIFAIFRQDSSSTGWNETIVENLLANVYHQINHLKTVLEEKLEKEDFTRGKLMSSLHLKRYYGRILHYLKAKEYSHCAWTIVRVEILRNFYFINRLTGYLRN"}},
  "key": {"F4/80 mRNA": {"system": "F4/80 mRNA", "experiment": "F4/80 mRNA expression in the spinal cord of experimental autoimmune encephalomyelitis mice (real-time PCR)", "format": "in vivo", "conditions": "day 42, spinal cord of EAE mice of Example 1, corrected by ribosomal RNA", "from_the_text": "(§1) On day 42, the spinal cord was removed from the mice employed in Example 1, and total RNA was recovered by use of ISOGEN (Nippon Gene Co., Ltd.). For comparison, similarly, the spinal cord was extirpated from unsensitized normal mice, and was employed for the below-described quantitative determination. cDNA was synthesized from the thus-obtained total RNA by use of a reverse transcriptase, and the amount of mRNA of the following gene (F4/80, TNF-α, IL-1β, or IL-6) was quantitatively determined by means of an ABI PRISM 7900HT system (Applied Biosystems) through real-time PCR employing a TaqMan probe according to the protocol of Applied Biosystems. Meanwhile, the amount of ribosomal RNA was determined, and employed for correction."}, "IL-1β mRNA": {"system": "IL-1β mRNA", "experiment": "IL-1β mRNA expression in the spinal cord of experimental autoimmune encephalomyelitis mice (real-time PCR)", "format": "in vivo", "conditions": "day 42, spinal cord of EAE mice of Example 1, corrected by ribosomal RNA", "from_the_text": "as §1"}, "IL-6 mRNA": {"system": "IL-6 mRNA", "experiment": "IL-6 mRNA expression in the spinal cord of experimental autoimmune encephalomyelitis mice (real-time PCR)", "format": "in vivo", "conditions": "day 42, spinal cord of EAE mice of Example 1, corrected by ribosomal RNA", "from_the_text": "as §1"}, "[1]": {"system": "experimental autoimmune encephalomyelitis model", "experiment": "experimental autoimmune encephalomyelitis mouse model, symptom scores", "format": "in vivo, C57BL/6 mice", "conditions": "EAE mice", "protocol": "2-Benzyl-5-(4-chlorophenyl)-6-[4-(methylthio)phenyl]-2H-pyridazin-3-one (hereinafter will be referred to as “drug A”) was administered to mice of an experimental autoimmune encephalomyelitis model, and symptoms of the disease were observed, whereby the drug was evaluated. The experimental autoimmune encephalomyelitis model is established by immunizing a mouse with myelin protein (i.e., myelin-sheath-constituting protein), thereby causing T-cell-mediated autoimmune inflammation in the central nervous system.\nSeven-week-old female C57BL/6 mice (Charles River Laboratories Japan, Inc.) were employed. A sensitizing emulsion for causing the mice to develop experimental autoimmune encephalomyelitis was prepared by mixing myelin oligodendrocyte glycoprotein (MOG) 35-55 (Alexis Biochemical) with an equiamount of complete Freund's adjuvant H37Ra (DIFCO) so that the MOG concentration was 2 mg/mL, followed by homogenization under ice cooling by means of Handy Micro Homogenizer (product of Microtec Co., Ltd.). The thus-prepared emulsion (0.1 mL) was intradermally administered to each mouse at its tail base for initial sensitization. On the same day, pertussis toxin dissolved in saline (500 ng/0.3 mL) was intravenously injected to the tail. Two days after initial sensitization, in a manner similar to that described above, pertussis toxin (500 ng/0.3 mL) was intravenously injected for booster. Drug A was orally administered (30 mg/kg) twice a day in the morning (9:00 to 11:00) and in the evening (15:30 to 17:30) from the day following the initial sensitization to 42 days after sensitization. IFN-β (Nihon Schering) was subcutaneously administered every other day at a dose of 10,000 IU/individual.\nThe drugs were evaluated from the condition of experimentally created autoimmune encephalomyelitis according to the following ratings:\nscore 1: limp tail or abnormal gait;\nscore 2: limp tail and abnormal gait;\nscore 3: paralysis of one limb;\nscore 4: paralysis of two or more limbs; and […]"}, "TNF-α mRNA": {"system": "TNF-α mRNA", "experiment": "TNF-α mRNA expression in the spinal cord of experimental autoimmune encephalomyelitis mice (real-time PCR)", "format": "in vivo", "conditions": "day 42, spinal cord of EAE mice of Example 1, corrected by ribosomal RNA", "from_the_text": "as §1"}},
  "data": [
    {"molecule": "B1", "values": [
      {"measurement": "amount of expression of mRNA of F4/80 in spinal cord", "setting": "F4/80 mRNA", "value": "lower than that of drug A"},
      {"measurement": "expression of IL-1β mRNA in spinal cord", "setting": "IL-1β mRNA", "value": "reduced"},
      {"measurement": "expression of IL-6 mRNA in spinal cord", "setting": "IL-6 mRNA", "value": "reduced"},
      {"measurement": "Incidence rate, symptoms corresponding to score 2 or worse", "setting": "[1]; 10 per group, Drug A 30 mg/kg orally twice a day to day 42, IFN-β 10,000 IU/individual subcutaneously every other day", "value": "5/10"},
      {"measurement": "death case during the experiment (score 5)", "setting": "[1]; 42 days after sensitization, Drug A 30 mg/kg orally twice a day, IFN-β 10,000 IU/individual s.c. every other day", "value": "12, 37, and 40 days after sensitization"},
      {"measurement": "Days required for onset, symptoms corresponding to score 2 or worse", "setting": "[1]; average ± standard error, Drug A 30 mg/kg orally twice a day, IFN-β 10,000 IU/individual subcutaneously every other day", "value": "27.4 ± 3.6", "unit": "days"},
      {"measurement": "expression of TNF-α mRNA in spinal cord", "setting": "TNF-α mRNA", "value": "not reduced"}
    ]}
  ]
}
